Results from the Kinase Knowledgebase extract (Sharma et al. 2016).

Amino acid sequences for entries named in this document (tags omitted). A change or cut given only in a name is not applied to a line headed by its entry.
UniProt O00329: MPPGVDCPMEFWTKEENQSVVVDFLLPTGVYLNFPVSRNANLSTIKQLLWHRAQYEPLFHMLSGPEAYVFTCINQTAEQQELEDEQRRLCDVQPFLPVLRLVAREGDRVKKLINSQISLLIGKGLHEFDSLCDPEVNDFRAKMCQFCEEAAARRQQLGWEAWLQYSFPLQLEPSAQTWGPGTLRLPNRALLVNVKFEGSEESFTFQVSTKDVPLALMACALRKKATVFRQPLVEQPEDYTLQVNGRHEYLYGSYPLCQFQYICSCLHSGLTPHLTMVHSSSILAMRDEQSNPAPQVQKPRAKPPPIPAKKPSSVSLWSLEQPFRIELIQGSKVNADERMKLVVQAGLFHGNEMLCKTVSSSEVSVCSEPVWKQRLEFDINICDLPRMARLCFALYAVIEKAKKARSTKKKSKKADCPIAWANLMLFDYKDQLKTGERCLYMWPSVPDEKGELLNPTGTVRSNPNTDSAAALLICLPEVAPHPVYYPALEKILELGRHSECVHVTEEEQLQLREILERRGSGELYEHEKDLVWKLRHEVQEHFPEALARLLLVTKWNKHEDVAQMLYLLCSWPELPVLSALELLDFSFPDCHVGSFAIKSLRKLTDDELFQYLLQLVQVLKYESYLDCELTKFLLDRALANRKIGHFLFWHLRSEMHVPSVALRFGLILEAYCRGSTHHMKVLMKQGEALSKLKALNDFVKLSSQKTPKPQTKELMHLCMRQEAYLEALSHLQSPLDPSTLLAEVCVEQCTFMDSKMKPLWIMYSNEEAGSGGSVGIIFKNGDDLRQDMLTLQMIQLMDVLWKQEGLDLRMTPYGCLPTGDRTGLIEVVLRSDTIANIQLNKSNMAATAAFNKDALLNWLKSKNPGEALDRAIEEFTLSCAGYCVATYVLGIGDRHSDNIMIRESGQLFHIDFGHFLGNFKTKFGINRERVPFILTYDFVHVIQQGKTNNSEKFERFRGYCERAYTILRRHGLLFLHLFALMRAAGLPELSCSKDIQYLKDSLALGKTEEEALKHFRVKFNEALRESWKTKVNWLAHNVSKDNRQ

Molecular target: PIK3CD (Human) (UniProt O00329)
Experiment: Enzyme Assay

IC50: 30 nM
SMILES: Nc1cnc(-n2c([C@@H](Nc3ncnc(N)c3Cl)C3CC3)nc3cccc(Cl)c3c2=O)cn1
